Statin myotox sup: suppression of simvastatin myotoxicity; 330,000 compounds, 0.78% hits; C2C12 myotubes + simvastatin, ATP luminescence, 48 h; scaled: DMSO 0, geranylgeraniol control 100; AID 602340; rescue of ATP level, % at 7.49 µM;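 active = mean ATP rescue above about 67%, or every replicate alone reaching that limit, limit read from the data, passing the limit was not always enough; inconclusive = no clear call, values can overlap the other calls; inactive = mean under the limit and some replicate under it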;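 note: myotubes were challenged with 10 µM simvastatin during compound exposure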
Cneo AK release: causes C. neoformans cell lysis; adenylate kinase release luminescence, 4 h; normalised: neutral wells 0, clomiphene wells 100; lysis activity, % at 15 µM; 360,000 compounds, 0.2% hits;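 active = mean lysis activity across replicates of at least 80%, whatever share of replicates individually reach that level; inactive = mean lysis activity below 80%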
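Signal: Adenylate kinase release luminescence | Assay system: Log-phase Cryptococcus neoformans yeast cells | Input: Cells at 5 × 10^6 per mL | Buffer or medium: Fresh YPD growth medium | Compound: Single dose | Schedule: Static 4 h at 37 °C with compound, 1 h detection | Controls: Clomiphene | Read-out: Luminescence rise reflecting yeast cell lysis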
miR122 inh: inhibitors of miR-122 in Huh7 cells. Huh7 miR-122 Renilla luciferase sensor, 48 h; neutral wells = 0, positive control = 100. activation (reporter increase), % at 12.5 µM. 340,000 compounds, 0.3% hits;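 active = mean replicate activation score at least 90 and every replicate individually at or above 90; inconclusive = only one of the two criteria met; inactive = neither criterion met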;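 note: higher luciferase means less miR-122 activity so hits act as miR-122 inhibitors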
Yeast UUG start: modulators of start codon recognition fidelity in yeast. S. cerevisiae UUG-firefly luciferase reporter, luminescence/redox ratio. activity score, % at 18.7 µM. 0.13% of 350,000 active. AID 602363;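 active = replicate mean at a twofold rise or more, about +100% in these data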;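 also: firefly luciferase made from a UUG start codon reports start codon fidelity; reporter light over untreated wells divided by growth signal over untreated wells; some hits fall short of that in this replicate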
* = called active by the depositor; [ ] = dose if it differs, or a comment. Shown are actives, neighbours in structure and some others; about 1.2% of the full set was active somewhere.

`C[C@H](CO)N1C[C@H](C)[C@@H](CN(C)S(C)(=O)=O)OCCCC[C@H](C)Oc2ccc(NC(=O)Nc3ccccc3)cc2C1=O` gave Cneo AK release 60, miR122 inh 3[16.7 µM] and Yeast UUG start 26.
`Cc1ccc(-c2cnc3c(c2)C(=O)N([C@@H](C)CO)C[C@@H](C)[C@@H](CN(C)C(=O)c2cccc(F)c2)O3)cc1` gave Statin myotox sup 18, Cneo AK release -5, miR122 inh -4[16.7 µM] and Yeast UUG start 6.
`Cc1ccc(C(=O)NNC(=O)C2CCN(Cc3ccc(Cl)c(Cl)c3)CC2)cc1` gave Statin myotox sup 135*, Cneo AK release 1, miR122 inh -2 and Yeast UUG start 3.
O=C(C[C@H]1C[C@@H]2c3cc(NC(=O)c4ccc5c(c4)OCO5)ccc3O[C@@H]2[C@H](CO)O1)NC1CCCCC1 was read as Statin myotox sup 4, Cneo AK release 0 and miR122 inh 0[16.7 µM].
Screening O=C(/C=C/c1ccccc1)C1=C(O)C(=O)N(CCO)C1c1ccc2c(c1)OCO2 (centres undefined) returned Statin myotox sup 115*, Cneo AK release 1, miR122 inh -3 and Yeast UUG start -27.
`C[C@H]1CN([C@@H](C)CO)C(=O)c2cccc(NS(=O)(=O)c3ccc(F)cc3)c2O[C@@H]1CN(C)Cc1ccc(C(=O)O)cc1` gave Statin myotox sup 1, Cneo AK release 41, miR122 inh 1[16.7 µM] and Yeast UUG start 11.
OCCN(CCCn1c(-c2ccncc2)nc2ccccc21)c1nc(CN2CCCCC2)cs1 was read as Statin myotox sup 66*, Cneo AK release 0, miR122 inh 1 and Yeast UUG start -12.
For C[C@@H]1CCCCO[C@H](CN(C)C)[C@H](C)CN([C@H](C)CO)C(=O)c2cc(NC(=O)NC3CCCCC3)ccc2O1 the results were Statin myotox sup 5 and miR122 inh 0[16.7 µM].
`CNC[C@H]1Oc2cc(C#Cc3ccc(OC)cc3)ccc2S(=O)(=O)N([C@@H](C)CO)C[C@@H]1C` gave Statin myotox sup -55, Cneo AK release 0, miR122 inh 0[16.7 µM] and Yeast UUG start 1.
Cc1cc(C)nc(Sc2nc(Cl)nc(N(c3ccccc3)c3ccccc3)n2)n1 was read as Statin myotox sup 102*, Cneo AK release -1, miR122 inh -2 and Yeast UUG start -11.
For C[C@@H]1CCCCO[C@H](CN(C)C(=O)NC2CCCCC2)[C@H](C)CN([C@@H](C)CO)C(=O)c2cc(NS(=O)(=O)c3cccs3)ccc2O1 the results were Statin myotox sup 92*, Cneo AK release 51, miR122 inh 2[16.7 µM] and Yeast UUG start 18.
`C[C@@H]1CCCCO[C@@H](CN(C)C(=O)NC2CCCCC2)[C@@H](C)CN([C@H](C)CO)C(=O)c2cc(NS(=O)(=O)c3cn(C)cn3)ccc2O1` gave Statin myotox sup -41, Cneo AK release 0, miR122 inh 18[16.7 µM] and Yeast UUG start -5.

4 structures already listed, ordered by formula weight, largest number first.
For C[C@@H]1CCCCO[C@H](CN(C)C(=O)NC2CCCCC2)[C@H](C)CN([C@@H](C)CO)C(=O)c2cc(NS(=O)(=O)c3cccs3)ccc2O1 the results were Statin myotox sup 92*, Cneo AK release 51, miR122 inh 2[16.7 µM] and Yeast UUG start 18.
For C[C@@H]1CCCCO[C@H](CN(C)C)[C@H](C)CN([C@H](C)CO)C(=O)c2cc(NC(=O)NC3CCCCC3)ccc2O1 the results were Statin myotox sup 5 and miR122 inh 0[16.7 µM].
`Cc1ccc(-c2cnc3c(c2)C(=O)N([C@@H](C)CO)C[C@@H](C)[C@@H](CN(C)C(=O)c2cccc(F)c2)O3)cc1` gave Statin myotox sup 18, Cneo AK release -5, miR122 inh -4[16.7 µM] and Yeast UUG start 6.
`CNC[C@H]1Oc2cc(C#Cc3ccc(OC)cc3)ccc2S(=O)(=O)N([C@@H](C)CO)C[C@@H]1C` gave Statin myotox sup -55, Cneo AK release 0, miR122 inh 0[16.7 µM] and Yeast UUG start 1.

Carrying on.
C[C@H](CO)N1C[C@H](C)[C@H](CN(C)C(=O)NC2CCCCC2)OCCCC[C@H](C)Oc2ccc(NS(=O)(=O)c3cn(C)cn3)cc2C1=O was read as Statin myotox sup -20, Cneo AK release 90*, miR122 inh 27[16.7 µM] and Yeast UUG start -2.
C[C@@H]1CCCCO[C@@H](CN(C)C(=O)c2ccccc2)[C@H](C)CN([C@@H](C)CO)C(=O)c2cc(NS(=O)(=O)c3cccs3)ccc2O1 was read as Statin myotox sup 90*, Cneo AK release -1, miR122 inh -5[16.7 µM] and Yeast UUG start 1.
C[C@@H]1CCCCO[C@H](CN(C)C(=O)c2ccccc2)[C@H](C)CN([C@H](C)CO)C(=O)c2cc(NS(=O)(=O)c3cccs3)ccc2O1 was read as Statin myotox sup 42, Cneo AK release -2, miR122 inh -1[16.7 µM] and Yeast UUG start 6.
`O=C(NCC[C@H]1CC[C@H](NC(=O)C2CCC2)[C@@H](CO)O1)c1ccc(F)cc1` gave Statin myotox sup 1, Cneo AK release 0 and Yeast UUG start 1.
Screening CCS(=O)(=O)Nc1ccc2c(c1)C(=O)N(C)C[C@@H](OC)[C@@H](C)CN(Cc1nccs1)[C@H](C)CO2 returned Statin myotox sup -12 and miR122 inh 1[16.7 µM].
Screening Cc1ccc(C(=O)Cn2nnc3ccccc32)cc1[N+](=O)[O-] returned Cneo AK release 3, miR122 inh -3 and Yeast UUG start -11.
Screening Cc1ccc(C(=O)n2nnc3ccccc32)cc1[N+](=O)[O-] returned Statin myotox sup 1, Cneo AK release 91*, miR122 inh 0 and Yeast UUG start -4.
`Cc1nc(NCc2ccco2)c2c(C)c(C)sc2n1` gave Statin myotox sup inconclusive, Cneo AK release 0, miR122 inh 129* and Yeast UUG start -8.
Screening Cc1sc2nc3c4ccccc4c(NCc4ccco4)nn3c(=O)c2c1C returned Cneo AK release -4, miR122 inh 1 and Yeast UUG start -9.
For Nc1cccc2cc(S(=O)(=O)O)ccc12 the results were Statin myotox sup 3, Cneo AK release 0, miR122 inh -5 and Yeast UUG start -4.
`Nc1ccc2c(S(=O)(=O)O)cccc2c1S(=O)(=O)O` gave Statin myotox sup 102*, Cneo AK release 3, miR122 inh -5 and Yeast UUG start -29.
Screening CCOC(=O)CN(C(=O)CSc1nnc2c(n1)[nH]c1ccc(F)cc12)c1ccccc1 returned Statin myotox sup 121*, Cneo AK release -2 and Yeast UUG start 6.
`CCOC(=O)CN(C(=O)CSc1nnc2c(n1)[nH]c1ccccc12)c1ccccc1` gave Statin myotox sup 6, Cneo AK release -10, miR122 inh 7 and Yeast UUG start -20.
CCN(CC)C(=O)C(=O)N/N=C/c1ccc(Br)cc1 was read as Statin myotox sup 89*, Cneo AK release -1, miR122 inh -3 and Yeast UUG start -5.
CC(C)(C)NC(=O)C(=O)N/N=C/c1ccc(Br)cc1 was read as miR122 inh -5.
`CCCCNC(=O)c1cc2nc3c(c(C(F)(F)F)n2n1)CCc1ccccc1-3` gave Statin myotox sup 76*, Cneo AK release 3, miR122 inh -6 and Yeast UUG start -9.
For C[C@@H]1CN([C@H](C)CO)S(=O)(=O)c2ccc(-c3cccc(C#N)c3)cc2O[C@@H]1CN(C)C(=O)c1cccnc1 the results were Statin myotox sup -24, Cneo AK release 0, miR122 inh 9[16.7 µM] and Yeast UUG start -6.
For COCCCNS(=O)(=O)c1ccc(OC)c(Cl)c1Cl the results were Statin myotox sup 1, Cneo AK release -1, miR122 inh 16 and Yeast UUG start -7.
COc1ccc(S(=O)(=O)NCCc2ccccc2)cc1OC was read as Statin myotox sup 10, Cneo AK release 0 and Yeast UUG start -4.
`CCCCCCNS(=O)(=O)c1ccc(OC)c(OC)c1` gave Statin myotox sup -7, Cneo AK release -1, miR122 inh 203* and Yeast UUG start -9.
`CCCCNS(=O)(=O)c1ccc(OC)c(Cl)c1Cl` gave Statin myotox sup -1, Cneo AK release -3, miR122 inh 222* and Yeast UUG start -11.
